Values of other authors as cited in article PMC9285861 (Biomacromolecules, 2019).

Tested on: HSA
Settings: cited from earlier work

Substance: human Aβ1–42
- share of plasma Aβ bound by HSA: 90%
